Broadly, the IC50 is the concentration that inhibits the measured activity by half.

Protein sequences, listed by entry. Tags and fused reporters are not part of them. Lines headed by an entry give the natural chain unless they say otherwise; changes in a name come on top.
UniProt P53341: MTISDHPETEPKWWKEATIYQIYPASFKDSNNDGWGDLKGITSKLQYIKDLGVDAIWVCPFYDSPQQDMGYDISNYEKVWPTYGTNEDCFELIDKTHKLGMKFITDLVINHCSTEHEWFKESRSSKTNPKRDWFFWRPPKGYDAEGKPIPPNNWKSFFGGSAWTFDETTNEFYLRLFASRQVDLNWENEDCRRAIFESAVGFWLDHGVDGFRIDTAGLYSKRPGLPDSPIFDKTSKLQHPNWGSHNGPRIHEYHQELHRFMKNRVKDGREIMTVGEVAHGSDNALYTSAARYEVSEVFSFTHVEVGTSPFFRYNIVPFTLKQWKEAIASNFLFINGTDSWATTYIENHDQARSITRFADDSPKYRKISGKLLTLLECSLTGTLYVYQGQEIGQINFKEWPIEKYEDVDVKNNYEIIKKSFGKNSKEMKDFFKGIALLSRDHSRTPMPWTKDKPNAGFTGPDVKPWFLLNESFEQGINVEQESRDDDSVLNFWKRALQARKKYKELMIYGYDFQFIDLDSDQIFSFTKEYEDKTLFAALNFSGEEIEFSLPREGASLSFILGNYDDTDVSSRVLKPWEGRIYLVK

The target in the assay is T1, α-Glucosidase from recombinant yeast (Saccharomyces cerevisiae, UniProt P53341).
T1 construct: purchased Shanghai yuanye Bio-Technology Co. Ltd; host or cells: recombinant yeast
The assay can be described thus: biochemical. Particulars: 0.1 M phosphate buffer pH 6.9, 0.5% DMSO, 37 °C, α-PNPG; mean ± SD (n = 3). Here is the method:
Fatty acids and their derivates were diluted in 0.1 M, pH = 6.9 phosphate buffer with 0.5% (v/v) DMSO as cosolvent, to prepare […] sample solutions. 50 μL sample solution and 100 μL 0.5 U α-glucosidase (prepared in the same phosphate buffer) were added into 1.5-mL plastic tubes, incubated at 37 °C, 10 min. Then, 50 μL 5 mM α-PNPG (prepared in the same buffer) was added into the plastic tube, incubated for another 10 min at 37 °C. At the end, 1 M Na2CO3 was added to terminate the reaction.
The Inhibitory score measures the inhibitory intensity of each sample on α-glucosidase, calculated by 1/IC50. Data were subjected to the one-way ANOVA analysis by SPSS 23.0, shown as mean ± SD (n = 3).

`CCCCCCCC(=O)O` [C8:0, Caprylic acid]: the IC50 was 98 ± 4.07 µM.

For the origin of these results see article PMC10992144, “Construction of fatty acid derivatives from rubber seed oil as α-glucosidase inhibitors based on rubber seed oil” (Bioresources and Bioprocessing, 2022).
